Earlier results as cited in paper PMC10569260 (Nature methods, 2023).

Conditions: cited from earlier work

In the case of [Leu^5]-enkephalin, the “t1/2 of degradation in vivo” value is listed as less than 4 min.
